# Values quoted from earlier work, collected in patent US5668144A, “1-azabicyclopheptane derivatives” (American Home Products Corporation, priority 1996, dated 1997).
# Test system: m1 receptors
# Details: cited from earlier work
compound,measurement,value
C[N+](C)(C)CCOC(N)=O [carbachol],activation of m1 receptors (in words),able to fully activate m1 receptors
